# The entries are a selection whose mix differs from that of the whole data set. Calls of active or inactive are those of the source. No stated cut-off is given here; in the data, active means inhibition above about 58%; inactive means the rest, inconclusive results apart; tested in S. cerevisiae.
# Assay: growth inhibition of WT strain, primary screen, mitochondrial fusion inhibitor project, WT and mutant strains, chemical genetic (AID 1362)
# Settings: mitochondrial fusion phenotypic screen, at 10 µM, stronger effect = higher value
row,SMILES,inhibition
1,CCOC(=O)N1CCC(Nc2ccc(OC)cc2)CC1,inactive: -8.61%
2,O=C(OC1CN2CCC1CC2)C1c2ccccc2Oc2ccccc21 (centres undefined),inactive: 7.1%
3,COc1ccc(C(=O)NCC2(N3CCCCC3)CCCCC2)c(OC)c1OC,inactive: 4.97%
4,COc1ccc(NC2CCN(CCc3ccccc3)CC2)c(OC)c1,inactive: -1.96%
5,COc1ccc(NC2CCN(C(=O)OC(C)(C)C)CC2)cc1,inactive: -9.59%
6,CN1CCN(CCOC(=O)C(O)(c2ccccc2)c2ccccc2)CC1,inactive: -7.14%
7,O=C(NCC1(N2CCOCC2)CCCCC1)c1cc(=O)[nH]c2ccccc12,inactive: -7.26%
8,O=C(NCC1(N2CCCCC2)CCCCC1)c1cccc([N+](=O)[O-])c1,inactive: 12.9%
9,N#CC1(Nc2ccccc2)CCN(CCc2ccccc2)CC1,inactive: 5.72%
10,COc1ccc(CN(CCCl)CCCl)cc1Cl,inactive: -8.52%
11,CN(C)c1cccc(C(=O)NCC2(N3CCCCC3)CCCCC2)c1,inactive: -9.85%
12,CC(C)c1ccc(NC2CCN(C(=O)OC(C)(C)C)CC2)cc1,inactive: 21.5%
13,O=C(OC1CN2CCC1CC2)C1c2ccccc2C=Cc2ccccc21 (centres undefined),inactive: -4.87%
14,N/C(=N\O)c1c(N)no[n+]1[O-],inactive: 13.4%
15,COc1ccc(C(=O)NCC2(N3CCOCC3)CCCCC2)cc1OC,inactive: -17.2%
16,c1ccc(CN2CCC(Nc3ccccc3)CC2)cc1,inactive: 14.3%
17,N#Cc1ccc(C(=O)NCC2(N3CCCCC3)CCCCC2)cc1,inactive: -17.8%
18,CN(C)c1ccc(C(=O)NCC2(N3CCCCC3)CCCCC2)cc1,inactive: -6.53%
19,CCN1CCC(Nc2cccc(F)c2)CC1,inactive: 6.39%
20,Fc1ccccc1NC1CCN(Cc2ccccc2)CC1,inactive: 1.76%
21,CCC(CO)(C(=O)OC1CN2CCC1CC2)c1ccccc1 (centres undefined),inactive: 17.7%
22,COc1cc(OC)cc(C(=O)NCC2(N3CCOCC3)CCCCC2)c1,inactive: -11.8%
23,CC(C)(C)OC(=O)N1CCC(Nc2ccccc2)CC1,inactive: -9.78%
24,CCOc1ncccc1C(=O)NCC1(N2CCOCC2)CCCCC1,inactive: -11.1%

# From PubChem BioAssay AID1362 (SRMLSC, 2008)
